Laboratory results from ChEMBL document CHEMBL4219073, “Development of selective inhibitors for the treatment of rheumatoid arthritis: (R)-3-(3-(Methyl(7H-pyrrolo[2,3-d]pyrimidin-4-yl)amino)pyrrolidin-1-yl)-3-oxopropanenitrile as a JAK1-selective inhibitor” (Bioorg Med Chem, 2018).

Target: T1, Tyrosine-protein kinase JAK3 (Homo sapiens, UniProt P52333)
T1 sequence (P52333 whole entry): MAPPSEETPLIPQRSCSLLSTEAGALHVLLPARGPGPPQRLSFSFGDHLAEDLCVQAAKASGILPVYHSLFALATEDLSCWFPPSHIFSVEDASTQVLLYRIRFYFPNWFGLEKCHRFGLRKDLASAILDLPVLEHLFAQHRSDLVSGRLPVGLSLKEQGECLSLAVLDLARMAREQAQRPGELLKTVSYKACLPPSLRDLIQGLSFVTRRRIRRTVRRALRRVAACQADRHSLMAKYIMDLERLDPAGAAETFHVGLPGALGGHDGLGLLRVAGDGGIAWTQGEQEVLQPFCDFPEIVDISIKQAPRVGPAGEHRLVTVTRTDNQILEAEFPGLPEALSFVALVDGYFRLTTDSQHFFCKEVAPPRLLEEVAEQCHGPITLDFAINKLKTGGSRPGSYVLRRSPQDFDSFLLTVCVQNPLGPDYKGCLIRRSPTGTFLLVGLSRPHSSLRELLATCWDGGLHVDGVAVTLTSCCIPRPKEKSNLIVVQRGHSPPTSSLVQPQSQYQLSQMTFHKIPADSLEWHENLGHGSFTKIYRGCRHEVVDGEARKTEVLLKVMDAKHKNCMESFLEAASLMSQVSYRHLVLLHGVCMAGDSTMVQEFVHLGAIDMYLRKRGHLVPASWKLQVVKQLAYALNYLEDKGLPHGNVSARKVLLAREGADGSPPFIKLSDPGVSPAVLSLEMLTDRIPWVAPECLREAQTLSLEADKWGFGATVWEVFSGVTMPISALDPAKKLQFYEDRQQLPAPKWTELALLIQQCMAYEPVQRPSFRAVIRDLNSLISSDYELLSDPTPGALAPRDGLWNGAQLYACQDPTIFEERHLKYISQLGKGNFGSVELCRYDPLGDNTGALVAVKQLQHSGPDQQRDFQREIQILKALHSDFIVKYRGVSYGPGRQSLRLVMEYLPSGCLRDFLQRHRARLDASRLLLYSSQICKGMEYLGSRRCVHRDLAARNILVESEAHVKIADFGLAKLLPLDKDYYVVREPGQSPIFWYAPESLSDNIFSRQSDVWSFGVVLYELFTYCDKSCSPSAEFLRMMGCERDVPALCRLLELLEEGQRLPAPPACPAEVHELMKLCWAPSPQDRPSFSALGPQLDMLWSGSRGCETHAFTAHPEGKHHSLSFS

- IC50: 2800 nM
Structure (SMILES): CN(c1ncnc2[nH]ccc12)[C@@H]1CCN(C(=O)CC#N)C1
